Measurements as given in ChEMBL document CHEMBL2346629, “Discovery and characterization of novel allosteric FAK inhibitors” (Eur J Med Chem, 2013).

Sequences of proteins named here, by UniProt entry; tags and fusion partners are left off.
UniProt Q05397, whole entry: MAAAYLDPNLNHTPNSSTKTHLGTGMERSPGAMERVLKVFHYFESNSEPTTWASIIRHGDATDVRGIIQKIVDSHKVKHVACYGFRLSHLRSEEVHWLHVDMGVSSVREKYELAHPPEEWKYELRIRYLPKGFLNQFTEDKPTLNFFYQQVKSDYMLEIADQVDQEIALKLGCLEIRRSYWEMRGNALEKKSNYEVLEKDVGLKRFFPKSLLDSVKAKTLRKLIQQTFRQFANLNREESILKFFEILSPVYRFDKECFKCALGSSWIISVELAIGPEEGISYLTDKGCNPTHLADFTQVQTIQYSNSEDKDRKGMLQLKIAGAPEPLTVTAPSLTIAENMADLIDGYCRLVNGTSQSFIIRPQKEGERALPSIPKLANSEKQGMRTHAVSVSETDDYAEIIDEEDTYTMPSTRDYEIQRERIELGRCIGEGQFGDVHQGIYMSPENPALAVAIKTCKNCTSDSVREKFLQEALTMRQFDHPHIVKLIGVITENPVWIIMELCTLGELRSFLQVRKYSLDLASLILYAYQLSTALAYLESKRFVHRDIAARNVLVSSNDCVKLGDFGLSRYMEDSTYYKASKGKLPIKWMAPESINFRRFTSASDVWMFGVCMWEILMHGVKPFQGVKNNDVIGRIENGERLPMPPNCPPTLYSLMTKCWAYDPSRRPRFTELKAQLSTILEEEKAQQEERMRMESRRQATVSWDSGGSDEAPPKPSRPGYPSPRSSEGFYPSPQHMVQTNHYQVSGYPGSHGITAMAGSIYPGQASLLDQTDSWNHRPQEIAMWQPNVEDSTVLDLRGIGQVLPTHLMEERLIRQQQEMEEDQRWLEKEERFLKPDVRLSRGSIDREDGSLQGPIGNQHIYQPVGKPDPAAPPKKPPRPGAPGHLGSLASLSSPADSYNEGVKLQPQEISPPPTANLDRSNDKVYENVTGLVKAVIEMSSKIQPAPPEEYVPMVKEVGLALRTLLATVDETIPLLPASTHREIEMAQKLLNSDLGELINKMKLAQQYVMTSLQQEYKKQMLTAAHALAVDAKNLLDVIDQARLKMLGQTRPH

Biological target: Focal adhesion kinase 1 (Homo sapiens, UniProt Q05397)

With CCc1ccc(-c2ccc3c(c2)-c2c(cnn2CC)S(=O)(=O)N3C)cc1 the IC50 was 8.7 µM.
